Target: Replicase polyprotein 1ab (Severe acute respiratory syndrome coronavirus 2, UniProt P0DTD1)
Assay: Hit profiling assay with DTT

How did the IC50 turn out when `CN1CCN(C2=C(Cl)C(=O)N(c3ccc(Cl)c(Cl)c3)C2=O)CC1` [3-chloro-1-(3,4-dichlorophenyl)-4-(4-methyl-1-piperazinyl)pyrrole-2,5-dione] was run?
The IC50 was 1560 nM.

Reference: BindingDB's records for doi:10.1101/2020.12.16.422677 (Fraunhofer Institute for Translational Medicine and …, 2020)
